Drawing on US20100144868A1, “Novel Neuroprotective Compounds and Uses Thereof” (Ramot At Aviv University Ltd., priority 2005, published 2010), this text covers Maximal aqueous concentration for 1 substance.

Read-outs that look alike come from different tables or passages of the source.

For “2,2-fullerenyl-malonic acid bis(adamantan-1-ylcarbamate-diethyleneglycol) ester [Compound 16]”, the Maximal aqueous concentration by setting is: (0.1% DMSO content in final aqueous solution) 0.07 10^−5 M; (0.5% DMSO content in final aqueous solution) 0.35 10^−5 M; (1.0% DMSO content in final aqueous solution) 1.40 10^−5 M.
